Each structure is given as a SMILES string.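 Five compound concentrations were applied to cells in 96-well plates for 48 hours; endpoints were derived by simple linear interpolation of the resulting dose-response curve. GI50 = concentration required for 50% inhibition of growth. TGI denotes the concentration required for complete inhibition of growth.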

Common to all, as to assay: growth of human tumour cells (NCI), 48 h
Test [1] has as its system DLD-1 colon.
For test [2], the system named is DMS 114 small cell lung.
In test [3] the test system is HOP-18 NSCLC.
Test [4] has as its system LXFL 529 NSCLC.
Test [5] concerns M19-MEL melanoma.
Test [6] has as its system SNB-78 CNS.

With `Nc1ccccc1Nc1ccccc1C(=O)[O-].Nc1ccccc1Nc1ccccc1C(=O)[O-].[Ni+2]`, the GI50 is > 100 µM in test [1]; > 100 µM in test [2]; 22.9 µM in test [3]; 44.3 µM in test [4]; > 100 µM in test [5]; > 100 µM in test [6]. Also, the TGI in test [1], in test [2], in test [3], in test [4], in test [5] and in test [6] was > 100 µM each time.

Source of the values: PubChem BioAssay (NCI).
